Laboratory results from PubChem BioAssay AID1461 (National Center for Advancing Translational Sciences (NCATS), 2008).
Values joined by “and” are separate entries in the source; they are usually repeats but may differ in a detail not shown here. Identical values can stand only once. This is a selection; strong and weak results do not stand in their true shares. Results filed as inconclusive are left out. Active and inactive are the calls of the source. Calls come from the whole dose curve; as a rule, active = well fitted inhibition curve with a large enough effect; inconclusive = small, poorly fitted or top-dose-only effect, or effect the other way; inactive = no such curve, though single readings can be large or run the other way.

By UniProt entry, the sequences of proteins in these tests, tags left out. Where a name states a change or a piece, a line headed by the entry shows the natural chain unless it says otherwise.
UniProt Q6W5P4: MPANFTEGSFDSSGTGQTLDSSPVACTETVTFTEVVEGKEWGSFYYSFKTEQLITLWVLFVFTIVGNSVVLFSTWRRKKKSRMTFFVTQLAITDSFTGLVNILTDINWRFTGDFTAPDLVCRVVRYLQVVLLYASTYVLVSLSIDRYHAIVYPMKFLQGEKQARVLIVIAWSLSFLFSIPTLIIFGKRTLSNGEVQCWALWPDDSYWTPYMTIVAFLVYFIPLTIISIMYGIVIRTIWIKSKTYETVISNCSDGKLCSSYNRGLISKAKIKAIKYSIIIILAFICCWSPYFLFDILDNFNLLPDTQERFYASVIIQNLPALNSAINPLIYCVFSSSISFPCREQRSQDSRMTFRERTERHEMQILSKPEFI

target: Neuropeptide S receptor (Homo sapiens) (UniProt Q6W5P4); test: qHTS Assay for Antagonists of the Neuropeptide S Receptor: cAMP Signal Transduction; details: CHO-NPSR cells, cAMP TR-FRET, antagonist mode; at 38.3 µM (top of the series) unless noted; note: nearly all actives have a fitted effect of over 50% in size
% is set by controls: 0 for no effect and ±100 for the full control effect.

Structure (SMILES) | activity change, negative = inhibition
O=[N+]([O-])c1ncn(CCn2cnc([N+](=O)[O-])n2)n1 | inactive: 8.34%
CC(=O)NC(SC(=S)N(C)C)C(Cl)(Cl)Cl (stereo not given) | inactive: -45.8%
O=[As](O)(c1ccccc1)c1ccc(O)cc1 | inactive: -21.1%
Nc1ccc([As](=O)(O)c2ccc([N+](=O)[O-])cc2)cc1 | inactive: -11.3%
C(Cc1nn[nH]n1)Cc1nn[nH]n1 | inactive: 17.1%
O=C(OC1CN2CCC1CC2)c1cccc(Cl)c1 (stereo not given) | inactive: -5.97% [at 46.1 µM]
O=P(Nc1ccccn1)(c1ccc(Br)cc1)c1ccc(Br)cc1 | inactive: -32.9%
O=P(Nc1nc2ccccc2s1)(c1ccccc1)c1ccccc1 | inactive: 14.3%
C[C@H]1OP(=O)(Oc2ccccc2)[C@H](O)[C@H](O)[C@H]1N=[N+]=[N-] (stereo not given in full) | inactive: 14.7%
CC(C)C(=O)NC(Sc1ccccc1)C(Cl)(Cl)Cl (stereo not given) | inactive: -11.9%
O=P(Nc1nccs1)(c1ccccc1)c1ccccc1 | inactive: -12.3% [at 46.1 µM]
c1nnnn1CCn1cnnn1 | inactive: -5.1% [at 46.1 µM]
C[C@@H]1C=CCP(=O)(Oc2ccccc2)O1 (stereo not given in full) | inactive: -0.788%
C[C@H]1OP(=O)(Oc2ccccc2)C[C@@H]2O[C@@H]21 (stereo not given in full) | inactive: 21.6%
CC(=O)Nc1ccc([As](=O)(O)O)c(O)c1 | inactive: -10.8%
CC(=O)Nc1ccc(Oc2c([N+](=O)[O-])cc([N+](=O)[O-])cc2[N+](=O)[O-])cc1 | inactive: 1.84%
O=P1(Nc2nc3ccc(Cl)cc3s2)COc2ccccc2O1 (stereo not given) | inactive: 6.82% [at 46.1 µM]
CCOc1ccc(C2=NCC(CBr)S2)cc1 (stereo not given) | inactive: -11.5%
CC(C)(C)C(=O)NC(Sc1ccccc1)C(Cl)(Cl)Cl (stereo not given) | inactive: -56.8%
COC(=O)c1cc2c(s1)N=C(c1ccccc1)N(C)P2(=O)N1CCOCC1 (stereo not given) | inactive: -4.47% [at 46.1 µM]
Cc1ccc(OP(=O)(Nc2ccccn2)Oc2ccc(C)cc2)cc1 | inactive: -35.2%
CC(=O)NC(SC(=S)N(CC(C)C)CC(C)C)C(Cl)(Cl)Cl (stereo not given) | inactive: -21.2%
CN(C(=O)Cc1ccc(Cl)c(Cl)c1)[C@@H]1CCCC[C@@H]1N1CCCC1 | inactive: 1.8% [at 46.1 µM]
CCC(=O)N1C2C3N(C(=O)CC)C1C1N(C(=O)CC)C(C(N1C(=O)CC)N3C(=O)CC)N2C(=O)CC | inactive: -2.08% [at 46.1 µM]

Structure (SMILES) | activity change, negative = inhibition
Cc1ccccc1OP(=O)(Nc1ccccn1)Oc1ccccc1C | inactive: -3.82%
CN(C)C(=O)Oc1noc2ccccc12 | inactive: 8.94%
CCNC(=S)/N=C(\N)N[N+](=O)[O-] | inactive: 4.57%
O=C(NC1CCS(=O)(=O)C1)NP(=S)(Oc1ccccc1)Oc1ccccc1 (stereo not given) | inactive: -2.64%
c1ccc(-c2nn[nH]n2)c(-c2nn[nH]n2)c1 | inactive: -25.9%
CCOC(=O)NC(Sc1ccccc1)C(Cl)(Cl)Cl (stereo not given) | inactive: -22.3% [at 46.1 µM]
Cc1ccc(NP(=O)(Oc2cccc(C)c2)Oc2cccc(C)c2)nc1 | inactive: 9.28%
CCN(N=Nc1nonc1N)c1nonc1N | inactive: 11.7%
Nc1cccc2ccc([As](=O)(O)O)cc12 | inactive: 1.33%
O=C(O)c1ccccc1[As](=O)(O)O | inactive: -2.43%
CC(=O)Nc1ccc([As](=O)(O)O)cc1 | inactive: -7.64%
O=P(Nc1nc2ccc(Cl)cc2s1)(c1ccccc1)c1ccccc1 | inactive: 51.9%
CCOP(=O)(Nc1ccccc1)OCC | inactive: -5.33% [at 46.1 µM]
Cc1cc(SC(NC(=O)c2ccc(F)cc2)C(Cl)(Cl)Cl)ncn1 (stereo not given) | inactive: 23.9%
Cc1ccc(NP(=O)(Oc2ccccc2F)Oc2ccccc2F)nc1 | inactive: -5.45%
CN(C(=O)Cc1ccc(Cl)c(Cl)c1)[C@H]1CCCC[C@@H]1N1CCCC1 | inactive: -11.6% [at 46.1 µM] and inactive: -15.2% [at 46.1 µM]
CC(C)CC(=O)NC(Sc1ccc(Cl)cc1)C(Cl)(Cl)Cl (stereo not given) | inactive: -20.4% [at 46.1 µM]
Nc1cc(N)c2nonc2c1[N+](=O)[O-] | inactive: 9.22%
Oc1ccccc1CNc1ccccn1 | inactive: -1.43% [at 46.1 µM]
O=C(NC(Sc1ccncn1)C(Cl)(Cl)Cl)c1ccccc1 (stereo not given) | inactive: 9.47%
NC(=O)c1cc([N+](=O)[O-])cc([N+](=O)[O-])c1N | inactive: 9.45%
Cc1ccc(N/C(=N/P(=O)(N2CCOCC2)N2CCOCC2)N2CCOCC2)cc1 | inactive: 7.95%
COc1ccccc1OP(=O)(Nc1ccc(C)cn1)Oc1ccccc1OC | inactive: -20.1%
Cc1ccc(OP(=O)(Nc2nccs2)Oc2ccc(C)cc2)cc1 | inactive: 9.14%

Structure (SMILES) | activity change, negative = inhibition
Clc1ccc(Cl)c(NC2=NCC(CBr)S2)c1 (stereo not given) | inactive: -13.1%
CN1CCCC(OC(=O)C(c2ccccc2)c2ccccc2)C1 (stereo not given) | inactive: -1.62% [at 46.1 µM]
Nc1ccc([As](=O)(O)c2ccc(N)cc2)cc1 | inactive: -9.82%
CCN(/C(=N/P(=O)(N1CCOCC1)N1CCOCC1)N1CCOCC1)c1ccc(OC)cc1 | inactive: 6.42%
CC(C)=N/N=C(\N)N[N+](=O)[O-] | inactive: 9.75%
CN(C)C(=O)OCCc1n(C)cc[n+]1C | inactive: 25.9%
COc1ccc(C2=NCC(CBr)S2)cc1 (stereo not given) | inactive: -5.95%
O=[N+]([O-])c1cccc2n[nH]nc12 | inactive: -8.03% [at 46.1 µM]
CC(=O)N1C2C3N(C(C)=O)C1C1N(C(C)=O)C(C(N1C(C)=O)N3C(C)=O)N2C(C)=O | inactive: -3.29% [at 46.1 µM]
Cc1ccc(NP(=O)(Oc2ccccc2)Oc2ccccc2)nc1 | inactive: -19.1%
O=[N+]([O-])c1cc([N+](=O)[O-])c(CCNc2ccccc2)c([N+](=O)[O-])c1 | inactive: 11.7%
CC(C)(C)C(=O)NC(Sc1ccncn1)C(Cl)(Cl)Cl (stereo not given) | inactive: 19%
O=[N+]([O-])c1ncn(CCn2ncnc2[N+](=O)[O-])n1 | inactive: 21.4%
O=[N+]([O-])c1cccc(NC2=NCC(CBr)S2)c1 (stereo not given) | inactive: 7.61%
O=C(O)CNc1ccc([As](=O)(O)O)cc1 | inactive: -12.3%
O=C(Nc1cc([As](=O)(O)O)ccc1O)c1ccccc1 | inactive: -24%
CCOC(=O)Nc1cccc([As](=O)(O)O)c1 | inactive: -19.8%
O=[N+]([O-])c1ccc(Nc2ccc(Oc3ccc([N+](=O)[O-])cc3[N+](=O)[O-])cc2)c([N+](=O)[O-])c1 | inactive: 36.5%
O=P(Nc1ccccn1)(c1cccc2ccccc12)c1cccc2ccccc12 | inactive: -25%
Cc1cc(SC(NC=O)C(Cl)(Cl)Cl)ncn1 (stereo not given) | inactive: 5.51%
CCOC(=O)Nc1ccc([As](=O)(O)O)c(O)c1 | inactive: -9.09%
Cc1cc(SC(NC(=O)c2ccccc2)C(Cl)(Cl)Cl)nc(C(C)C)n1 (stereo not given) | inactive: -0.533%
CCOC(=O)c1ccc(NC(=O)C(C)(CCl)SC)cc1 (stereo not given) | inactive: -2.7%
COP1(=S)c2c(C)nn(CCC#N)c2N=C(c2ccc(F)cc2)N1C (stereo not given) | inactive: -13.3% [at 46.1 µM]

Structure (SMILES) | activity change, negative = inhibition
O=C(COc1ccccc1)OC1CN2CCC1CC2 (stereo not given) | inactive: 12.4% [at 46.1 µM]
COc1ccc(N/C(=N/P(=O)(N2CCOCC2)N2CCOCC2)N2CCOCC2)cc1 | inactive: 19.5%
O=C(OC1CN2CCC1CC2)C12CC3CC(CC(C3)C1)C2 (stereo not given) | inactive: 4.53% [at 46.1 µM]
Cc1cc(=O)[nH]c(N[N+](=O)[O-])n1 | inactive: 10.3%
Cc1c2c(nc3ccccc13)SC(C(Cl)Cl)C2 (stereo not given) | inactive: 8.84%
COc1ccc2nc(NP(=O)(c3ccccc3)c3ccccc3)sc2c1 | inactive: -28.6%
COc1cc(I)ccc1[As](=O)(O)O | inactive: -10.6%
CC(C)c1ccc(OP(=O)(Nc2ccccn2)Oc2ccccc2F)cc1 (stereo not given) | inactive: -21.4%
ClCCSc1nnc(-c2cccnc2)o1 | inactive: 3.43% [at 46.1 µM]
CCN(CC)C(=S)SC(NC=O)C(Cl)(Cl)Cl (stereo not given) | inactive: -13.3% [at 46.1 µM]
CC(C)NC(=O)NP(=O)(Oc1ccccc1)Oc1ccccc1 | inactive: 5.71%
O=[N+]([O-])c1cc([N+](=O)[O-])c(-c2ccn[nH]2)s1 | inactive: 11.6%
C[As](=O)(O)c1cccc(C(=O)O)c1 | inactive: -17.9%
O=[As](O)(c1ccc(O)cc1)c1ccccc1O | inactive: -24.5%
Cc1ccc2nc3c(c(C)c2c1)CC(C(Cl)Cl)S3 (stereo not given) | inactive: -16.6% [at 46.1 µM]
Cc1ccc(OP(=O)(Nc2ccc([N+](=O)[O-])cn2)Oc2ccc(C)cc2)cc1 | inactive: -1.79%
NC(=O)Nc1ccc([As](=O)(O)O)cc1 | inactive: 22.2%
O=[N+]([O-])c1ccc2c(c1)nnn2O | inactive: 7.28% [at 46.1 µM]
CCOP1(=S)c2c(C)nn(CCC#N)c2N=C(c2ccc(F)cc2)N1C (stereo not given) | inactive: -23.5% [at 46.1 µM]
CN(C(=O)Cc1ccccc1)[C@@H]1CC[C@]2(CCCO2)C[C@H]1N1CCCC1 | inactive: 12.8%
CS(=O)(=O)c1cc([N+](=O)[O-])c2no[n+]([O-])c2c1 | inactive: 29.5%
CCOP1(=S)c2c(C)nn(CCC#N)c2N=C(c2ccccc2F)N1C (stereo not given) | inactive: -10.3% [at 46.1 µM]
O=P(Nc1nccs1)(c1ccccc1)c1nc2ccccc2s1 (stereo not given) | inactive: -16.8% [at 46.1 µM]
